In the NIST ThermoML archive (doi:10.1021/je600578u):
± gives the expanded uncertainty stated by the source.

Tests used:
[1] = 298.15 K; 101.33 kPa; Liquid
[2] = refractive index (Na D-line) (dimensionless); settings: 298.15 K; 101.33 kPa; Liquid; Standard Abbe refractometry
[3] = xn = mol fraction of the nth substance listed; settings: 298.15 K, 101 kPa, Liquid
[4] = refractive index (Na D-line) (dimensionless); xn = mol fraction of the nth substance listed; settings: 298.15 K, 101 kPa, Liquid, Standard Abbe refractometry

CCCCOCCCC [dibutyl ether]
mass density [1]: 764.22 ± 0.99 kg/m3 | refractive index [2]: 1.39646 ± 0.00052

CCCCOCCCC [dibutyl ether] + CCO
mass density ([3]; x1 = 0.0502): 782.69 ± 0.98 kg/m3 | mass density ([3]; x1 = 0.0997): 780.5 ± 0.98 kg/m3 | mass density ([3]; x1 = 0.1995): 777.02 ± 0.98 kg/m3 | mass density ([3]; x1 = 0.3): 774.28 ± 0.98 kg/m3 | mass density ([3]; x1 = 0.4): 772.09 ± 0.98 kg/m3 | mass density ([3]; x1 = 0.5003): 770.31 ± 0.98 kg/m3 | mass density ([3]; x1 = 0.6022): 768.81 ± 0.98 kg/m3 | mass density ([3]; x1 = 0.7013): 767.53 ± 0.98 kg/m3 | mass density ([3]; x1 = 0.8005): 766.35 ± 0.98 kg/m3 | mass density ([3]; x1 = 0.9014): 765.28 ± 0.98 kg/m3 | mass density ([3]; x1 = 0.9489): 764.79 ± 0.98 kg/m3 | refractive index ([4]; x1 = 0.0502): 1.3643 ± 0.00052 | refractive index ([4]; x1 = 0.0997): 1.36848 ± 0.00052 | refractive index ([4]; x1 = 0.1995): 1.37548 ± 0.00052 | refractive index ([4]; x1 = 0.3): 1.38028 ± 0.00052 | refractive index ([4]; x1 = 0.4): 1.38429 ± 0.00052 | refractive index ([4]; x1 = 0.5003): 1.38771 ± 0.00052 | refractive index ([4]; x1 = 0.6022): 1.39046 ± 0.00052 | refractive index ([4]; x1 = 0.7013): 1.39237 ± 0.00052 | refractive index ([4]; x1 = 0.8005): 1.39414 ± 0.00052 | refractive index ([4]; x1 = 0.9014): 1.3955 ± 0.00052 | refractive index ([4]; x1 = 0.9489): 1.39608 ± 0.00052

CCCCOCCCC [dibutyl ether] + c1ccccc1
mass density ([3]; Vibrating tube method, x1 = 0.0502): 863.1 ± 0.72 kg/m3 | mass density ([3]; Vibrating tube method, x1 = 0.0999): 853.73 ± 0.71 kg/m3 | mass density ([3]; Vibrating tube method, x1 = 0.1999): 837.31 ± 0.69 kg/m3 | mass density ([3]; Vibrating tube method, x1 = 0.2999): 823.35 ± 0.68 kg/m3 | mass density ([3]; Vibrating tube method, x1 = 0.4): 811.31 ± 0.67 kg/m3 | mass density ([3]; Vibrating tube method, x1 = 0.4994): 800.95 ± 0.66 kg/m3 | mass density ([3]; Vibrating tube method, x1 = 0.6002): 791.7 ± 0.65 kg/m3 | mass density ([3]; Vibrating tube method, x1 = 0.6985): 783.71 ± 0.64 kg/m3 | mass density ([3]; Vibrating tube method, x1 = 0.8005): 776.38 ± 0.63 kg/m3 | mass density ([3]; Vibrating tube method, x1 = 0.9014): 769.91 ± 0.63 kg/m3 | mass density ([3]; Vibrating tube method, x1 = 0.9506): 767.02 ± 0.62 kg/m3 | refractive index ([4]; x1 = 0.0502): 1.48717 ± 0.00054 | refractive index ([4]; x1 = 0.0999): 1.47826 ± 0.00054 | refractive index ([4]; x1 = 0.1999): 1.46325 ± 0.00054 | refractive index ([4]; x1 = 0.2999): 1.45049 ± 0.00054 | refractive index ([4]; x1 = 0.4): 1.43935 ± 0.00054 | refractive index ([4]; x1 = 0.4994): 1.42978 ± 0.00054 | refractive index ([4]; x1 = 0.6002): 1.42142 ± 0.00054 | refractive index ([4]; x1 = 0.6985): 1.41407 ± 0.00054 | refractive index ([4]; x1 = 0.8005): 1.40759 ± 0.00054 | refractive index ([4]; x1 = 0.9014): 1.40163 ± 0.00054 | refractive index ([4]; x1 = 0.9506): 1.39897 ± 0.00054
